Test results: patent US20060160798A1, “Viral polymerase inhibitors” (Boehringer Ingelheim (Canada) Ltd., priority 2001, published 2006)

The molecules below were run against T1, hepatitis C virus RNA dependant polymerase (NS5B) (Hepatitis C virus genotype 1b, UniProt P26663) (assay: biochemical). Details: IC50, HCV NS5B polymerase, 10 nM enzyme, 1.5 hours at room temperature.

Row | SMILES | IC50 [µM]
1 | O=C(O)/C=C/c1ccc(NC(=O)C2(NC(=O)c3ccc4c(C5CCCC5)c(-c5ccccn5)sc4c3)CCC2)cc1 [Entry 8001] | 1 to 10
2 | CC(C)(NC(=O)c1ccc2c(C3CCCC3)c(-c3ccccn3)sc2c1)C(=O)Nc1ccc(/C=C/C(=O)O)cc1 [Entry 8002] | 1 to 10
3 | O=C(O)/C=C/c1ccc(NC(=O)C2(NC(=O)c3ccc4c(C5CCCC5)c(-c5ccoc5)sc4c3)CCC2)cc1 [Entry 8003] | 0.5 to 1
4 | CC(C)(NC(=O)c1ccc2c(C3CCCC3)c(-c3ccoc3)sc2c1)C(=O)Nc1ccc(/C=C/C(=O)O)cc1 [Entry 8004] | < 0.5
5 | O=C(O)/C=C/c1ccc(NC(=O)C2(NC(=O)c3ccc4c(C5CCCC5)c(-c5ccccn5)oc4c3)CCC2)cc1 [Entry 8005] | 1 to 10
6 | CC(C)(NC(=O)c1ccc2c(C3CCCC3)c(-c3ccccn3)oc2c1)C(=O)Nc1ccc(/C=C/C(=O)O)cc1 [Entry 8006] | 1 to 10

Same assay, conditions: IC50, Table 7

Row | SMILES | IC50 [µM]
7 | Cn1c(-c2ccccn2)c(C2CCCC2)c2ccc(C(=O)NC3(C(=O)Nc4ccc(S(N)(=O)=O)cc4)CCC3)cc21 [Entry 7068] | < 0.5
8 | CN1CC[C@@](NC(=O)c2ccc3c(C4CCCC4)c(-c4ccccn4)n(C)c3c2)(C(=O)Nc2ccc(-c3cncnc3)cc2)C1 [Entry 7069] | < 0.5
9 | Cn1c(-c2ccccn2)c(C2CCCC2)c2ccc(C(=O)NC3(C(=O)Nc4ccc(C#N)cc4)CCC3)cc21 [Entry 7070] | 0.5 to 1
10 | Cn1c(-c2ccccn2)c(C2CCCC2)c2ccc(C(=O)NC3(C(=O)Nc4cccc(O)c4)CCC3)cc21 [Entry 7071] | < 0.5
11 | Cn1c(-c2ccccn2)c(C2CCCC2)c2ccc(C(=O)NC3(C(=O)Nc4ccc(O)cc4)CCC3)cc21 [Entry 7072] | < 0.5
12 | Cn1c(-c2ccccn2)c(C2CCCC2)c2ccc(C(=O)NC3(C(=O)Nc4ccccc4)CCC3)cc21 [Entry 7073] | 0.5 to 1
13 | CN1CCC(NC(=O)c2ccc3c(C4CCCC4)c(-c4ccccn4)n(C)c3c2)(C(=O)Nc2ccc(-c3csc(N)n3)cc2)C1 (stereo not drawn) [Entry 7075] | < 0.5
14 | Cn1c(-c2ccccn2)c(C2CCCC2)c2ccc(C(=O)NC3(C(=O)Nc4ccc(C(N)=O)cc4)CCC3)cc21 [Entry 7076] | < 0.5
15 | Cn1c(-c2ccccn2)c(C2CCCC2)c2ccc(C(=O)NC3(C(=O)Nc4ccc5[nH]ccc5c4)CCC3)cc21 [Entry 7077] | < 0.5
16 | Cn1c(-c2ccccn2)c(C2CCCC2)c2ccc(C(=O)NC3(C(=O)Nc4ccc(Cc5nnn[nH]5)cc4)CCC3)cc21 [Entry 7078] | 0.5 to 1
17 | Cn1c(-c2ccccn2)c(C2CCCC2)c2ccc(C(=O)NC3(C(=O)Nc4ccc(-c5nnn[nH]5)cc4)CCC3)cc21 [Entry 7079] | < 0.5
18 | Cn1c(-c2ccccn2)c(C2CCCC2)c2ccc(C(=O)NC3(C(=O)Nc4nc5ccc(C(=O)O)cc5s4)CCC3)cc21 [Entry 7082] | < 0.5
19 | Cn1c(-c2ccccn2)c(C2CCCC2)c2ccc(C(=O)NC3(C(=O)Nc4ccc(C(=O)O)cc4)CCC3)cc21 [Entry 7083] | < 0.5

Each molecule was assayed against T1, hepatitis C virus RNA dependant polymerase (NS5B) (assay: not given). Details: HCV NS5B polymerase, 10 nM enzyme, 1.5 hours at room temperature.

Row | SMILES | IC50 [µM]
20 | CC(NC(=O)c1ccc2c(C3CCCC3)c(-c3ccccn3)n(C)c2c1)c1nc2ccc(C=CC(=O)O)cc2[nH]1 (stereo not drawn) [Entry 1018] | < 0.5

Same assay, conditions: Table 7

Row | SMILES | IC50
21 | Cc1ccc(-c2c(C3CCCC3)c3ccc(C(=O)NC4(C(=O)Nc5ccc(-c6ccc(C(=O)O)o6)cc5)CCCC4)cc3n2C)cn1 [Entry 7033] | C B
